# From US20090238895A1, “NUTRITIONAL AND/OR PHARMACEUTICAL PREPARATION FOR USE IN PROPHYLAXIS AND TREATMENT OF DISTURBANCES IN MICROELEMENTS ABSORPTION FROM THE ALIMENTARY CANAL” (priority 2004, published 2009)
# Marks after values point to notes of the source that are not given here.
# Key:
# [1] = Iron concentration in plasma of young pigs after FeSO4 or FeSO4/AKG infusion to the duodenum or pelvic intestine; assay type: in vivo; conditions: AKG administered enterally with FeSO4
# Protocol: (§1) Investigations were performed on 3 piglets of the Swedish race Landrace weighting 30-35 kg. Animals originated from the university herd (Swedish Agricultural University, Dept. of Agricultural Biosystems and Technology, Lund). Young pigs were fed 2 times a day at the same time (9:00-10:00 a.m. and 3:00-4:00 p.m.) with a standard fodder (Vaxfor, Lantmanen, Sweden) with a daily dose 50 g/kg body weight. They were watered ad libitum. Animals were held separately in boxes with automatically regulated 12 hour's periods of day and night.
# (§2) Sterile catheters and T-fistulas used in the experience were made of silicone tubes with maintained medical standards (Dow Cornning). Piglets were starved for 9-12 hours before the operation. Before the operation animals received a sedative drug—azoperone (Stresnil, 2 mg/kg body weight). Then the inhalation induction of general anaesthesia was performed (Fluothan 0.5-1.5 vol %). […] With the catheters inserted to the portal vein and the common carotid-artery the blood samples for later analyses were collected.
# Two incisions were done: one 10-15 cm close to the right hunger fossa, second 2-3 cm between the brachial joint and the angle of the mandible. Duodenal fistula was placed behind the opening of the pancreatic duct to the duodenum. […]
# [2] = AKG concentration in plasma of young pigs after AKG or FeSO4/AKG infusion to the duodenum or pelvic intestine; assay type: in vivo
# Protocol: as §1, §2
# Two incisions were done: one 10-15 cm close to the right hunger fossa, second 2-3 cm between the brachial joint and the angle of the mandible. Duodenal fistula was placed behind the opening of the pancreatic duct to the duodenum. Pelvic T-fistula (int. diameter 3.18 mm and ext. diameter 4.64 mm—both fistulas) was introduced to the pelvic intestine at the end of the caeco-iliac ligament.
# The catheter to the portal vein (int. diameter 0.64 mm and ext. diameter 1.19 mm) was introduced through the liver and fixed with several sutures (0-2 Catgut, Ethicon, England). The catheter placed in portal vein and both intestinal fistulas were brought out the body in the line of incision. After dissection of zygomatic vein the catheter was introduced in the cardiac direction on the depth of 7 cm. The vein was closed with the double ligature (0-3 silicone-, Ethicon, England) and brought outside the body with the surgical needle in the dorsal part of the neck. The abdomen and the neck wounds were closed with two layers of sutures: the peritoneum (only in the abdomen wound) and muscles were closed with twisted suture (0-0 Catgut , Ethicon), the skin was closed with the interrupted sutures (Suturamid 2-0, Ethicon). After operation young pigs were placed in separate boxes. During 5 postoperative days animals were fed twice a day, they received water ad libitum. The operation was performed by the skilled surgeon in accordance with surgical techniques.
# Before infusion animals were starved. The daily dose of food was given during evening feeding at 3:00 p.m. All infusions were started at 9:00 a.m. Blood samples were taken 30 minutes before and 15, 30, 60 and 120 minutes after the infusion. 2. Infusions composition.
# [3] = 4 volunteers; 1 litre of 10% AKG-soda salt solution orally after iron formate 200 mg, vs glucose/NaCl
# [4] = 4 volunteers; 1 litre of 10% AKG-soda salt solution orally after 200 mg zinc sulphate, vs glucose/NaCl
# [5] = rats; MnCl2 with AKG-soda salt 0.5 g/kg body weight; back part of jejunum; bile and liver Mn
smiles,measurement,setting,value
"O=C(O)CCC(=O)C(=O)O [AKG, Alpha-ketoglutarate acid]",effect on iron absorption from the intestine into the blood,[1],significantly increases iron absorption from the intestine into the blood
same,AKG concentration in plasma,"[2]; infusion to pelvic intestine, portal vein, 15 min",5.33 ± 2.48^b μg/l
same,AKG concentration in plasma,"[2]; infusion to pelvic intestine, portal vein, 30 min",4.06 ± 2.55^b μg/l
same,AKG concentration in plasma,"[2]; infusion to pelvic intestine, portal vein, 60 min",4.18 ± 0.63^b μg/l
same,AKG concentration in plasma,"[2]; infusion to pelvic intestine, portal vein, 120 min",4.05 ± 0.16^b μg/l
same,AKG concentration in plasma,"[2]; infusion to pelvic intestine, portal vein, -30 min (before infusion)",3.80 ± 2.57^b μg/l
same,AKG concentration in plasma,"[2]; infusion to pelvic intestine, zygomatic vein, 15 min",2.96 ± 0.29^b μg/l
same,AKG concentration in plasma,"[2]; infusion to pelvic intestine, zygomatic vein, 30 min",2.55 ± 1.26^b μg/l
same,AKG concentration in plasma,"[2]; infusion to pelvic intestine, zygomatic vein, 60 min",2.58 ± 0.26^b μg/l
same,AKG concentration in plasma,"[2]; infusion to pelvic intestine, zygomatic vein, 120 min",2.60 ± 0.73^b μg/l
same,AKG concentration in plasma,"[2]; infusion to pelvic intestine, zygomatic vein, -30 min (before infusion)",1.47 ± 0.65^a μg/l
same,AKG concentration in plasma,"[2]; infusion to the duodenum, portal vein, 15 min",28.62 ± 2.84^f μg/l
same,AKG concentration in plasma,"[2]; infusion to the duodenum, portal vein, 30 min",22.86 ± 4.08^f μg/l
same,AKG concentration in plasma,"[2]; infusion to the duodenum, portal vein, 60 min",13.53 ± 3.04^e μg/l
same,AKG concentration in plasma,"[2]; infusion to the duodenum, portal vein, 120 min",11.11 ± 6.70^ce μg/l
same,AKG concentration in plasma,"[2]; infusion to the duodenum, portal vein, -30 min (before infusion)",3.38 ± 0.54^b μg/l
same,AKG concentration in plasma,"[2]; infusion to the duodenum, zygomatic vein, 15 min",11.32 ± 6.94^d μg/l
same,AKG concentration in plasma,"[2]; infusion to the duodenum, zygomatic vein, 30 min",13.62 ± 3.91^d μg/l
same,AKG concentration in plasma,"[2]; infusion to the duodenum, zygomatic vein, 60 min",7.72 ± 2.69^cb μg/l
same,AKG concentration in plasma,"[2]; infusion to the duodenum, zygomatic vein, 120 min",4.82 ± 3.39^b μg/l
same,AKG concentration in plasma,"[2]; infusion to the duodenum, zygomatic vein, -30 min (before infusion)",1.87 ± 0.64^a μg/l
same,effect on quantitative absorption of Fe2+ ions from the alimentary canal into the blood,[3],increases quantitative absorption of Fe2+ and Zn2+ ions from the alimentary canal into the blood
same,effect on quantitative absorption of Zn2+ ions from the alimentary canal into the blood,[4],increases quantitative absorption of Fe2+ and Zn2+ ions from the alimentary canal into the blood
same,effect on absorption of manganese (Mn) from the intestine,[5],increases the absorption of the manganese (Mn) from the back part of jejunum
